System: mAPOBEC3
Assay type: cell-based, murine

## TNFα
  induction of mAPOBEC3: sufficient to induce mAPOBEC3

Source: US20220143116A1 (priority 2019, published 2022)
